Experiments:
[1] = Aggregation by dynamic light scattering; assay type: physicochemical; settings: transport buffer; 0.1, 1 and 10 µM; 25 °C
Description: All measurements were conducted at 25 °C with a detection angle of 173° and a measuring time of 120 s. Compound solutions were prepared in transport buffer (s. 2.3) at 0.1 µM, 1 µM, and 10 µM. For each sample, the measurement was recorded in triplicate. In DLS, the fluctuation of intensity in scattered light is correlated against short decay intervals (τ) and the intensity ACF (autocorrelation function) is obtained through the following mono-exponential equation:G(2) (τ) = B + Bf exp (−2Dmq^2 τ) (7)
• G(2)(τ): Measured amplitude autocorrelation function • B: So-called baseline • f: Instrument constant • Dm: Particle diffusion coefficient • q: Scattering vector given by (4πn/λ)sin(θ/2) • τ: Delay time
A correlogram is generated where g2(τ) is plotted against the decay time.

[2] = design: method as in PMID 25131706; settings: cited from earlier work

Cyclosporin A
aggregation (DLS time correlation function) [1]: does not aggregate

Emodepside
aggregation (DLS time correlation function) [1]: concentration-dependent aggregation | exposure in brain vs plasma ([2]; P-gp deficient mice): comparable exposure in brain and plasma | brain levels ([2]; wildtype (WT) mice): not detectable
